Biological target: T1, BromoTag-Brd2 (Homo sapiens, UniProt O60885+P40337, L387A)
T1 construct: comprising residues 368-440 of human Brd4; Brd2 (endogenous protein, fusion partner in the same polypeptide); eGFP-P2A (upstream marker in the knock-in cassette) (N, cleaved yes); expressed in transfected cells; host or cells: HEK293, heterozygous CRISPR knock-in at the endogenous BRD2 locus
Test: Dose-response degradation assay (western blot, 6 h) in heterozygous BromoTag-Brd2 HEK293 cells
Format: cell-based
Method: Dose-response Degradation Assays. All dose-response degradation assays were performed on the genotype verified heterozygous BromoTag-Brd2 HEK293 cell line. Heterozygous BromoTag-Brd2 HEK293 cells were plated at a density of 5×10^5 cells per well of a six healthy plate a day before initiation of the titration experiment. PROTAC compounds were dissolved in DMSO at a concentration of 10 mM, from these stock concentrations, PROTAC compounds were diluted to appropriate concentrations using DMSO in the range of 10 μM-1 nM. […] Control compounds such as MZ1, cis-MZ1 were similarly dissolved in DMSO to the appropriate concentration. […] Cells were washed twice with PBS before being harvested.
Western Blotting. […] The membranes were blocked for 1 h prior to incubation with the primary antibodies using 5% Milk TBST. […] Following overnight incubation with the primary antibodies at 4° C., the membranes were incubated with secondary antibodies (Anti-rabbit, Abcam AB216773, 1:5000 or anti-mouse, Abcam AB216774, 1:5000) and hFAB™ Rhodamine Anti-Tubulin Antibody (Biorad, 12004165, 1:10000) for one h and then imaged with a Bio-Rad imager (LI-COR Biosciences). All western blots were analysed for band intensities using Image Lab from Bio-Rad (LI-COR, Biosciences). The data extracted from these blots were then plotted and analysed using Prism (v. 8.2.0, GraphPad).

Amino acid sequences for entries named in this document (tags omitted). A change or cut given only in a name is not applied to a line headed by its entry.
UniProt P40337, whole entry: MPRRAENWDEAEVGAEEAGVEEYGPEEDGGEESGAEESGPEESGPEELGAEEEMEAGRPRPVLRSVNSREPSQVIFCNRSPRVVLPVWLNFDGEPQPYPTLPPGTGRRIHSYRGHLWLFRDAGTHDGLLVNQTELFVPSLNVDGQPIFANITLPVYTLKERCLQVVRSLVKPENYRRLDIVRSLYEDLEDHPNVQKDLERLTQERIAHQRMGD

[1] = HEK293, Ab: BromoTag-Brd2, single stereoisomers, 6 h

Structure (SMILES) | Dmax [1] [%] | Dmax (HEK293, BromoTag'ed BRD2 (P25440), N-term tag, Table 6) [%] | Dmax (HEK293, Ab: Brd2, second-generation B&H-PROTACs, 6 h) [%]
CC[C@@H](C(=O)OCCOCCOCCOCC(=O)N[C@H](C(=O)N1C[C@H](O)C[C@H]1C(=O)NCc1ccc(-c2scnc2C)cc1)C(C)(C)C)[C@@H]1N=C(c2ccc(Cl)cc2)c2c(sc(C)c2C)-n2c(C)nnc21 (single isomer, unassigned) [AGB1 (46)] | 97 | 97 | –
CC[C@@H](C(=O)OCCOCCOCCOCC(=O)N[C@H](C(=O)N1C[C@H](O)C[C@H]1C(=O)NCc1ccc(-c2scnc2C)cc1)C(C)(C)C)[C@@H]1N=C(c2ccc(Cl)cc2)c2c(sc(C)c2C)-n2c(C)nnc21 (relative stereo) [ET-OMZ1 (23), (S)-13-((2S,4R)-4-hydroxy-2-((4-(4-methylthiazol-5-yl)benzyl)carbamoyl)pyrrolidine-1-carbonyl)-14,14-dimethyl-11-oxo-3,6,9-trioxa-12-azapentadecyl (R*)-2-((S*)-4-(4-chlorophenyl)-2,3,9-trimethyl-6H-thieno[3,2-f][1,2,4]triazolo[4,3-a][1,4]diazepin-6-yl)butanoate] | – | – | 96
CC[C@@H](C(=O)NCCOCCOCCOCC(=O)N[C@H](C(=O)N1C[C@H](O)C[C@H]1C(=O)NCc1ccc(-c2scnc2C)cc1)C(C)(C)C)[C@@H]1N=C(c2ccc(Cl)cc2)c2c(sc(C)c2C)-n2c(C)nnc21 (single isomer, unassigned) [AGB3 (48)] | 96 | – | –

— patent US20250130239A1, “PROTEIN DEGRADER” (University of Dundee, priority 2021, published 2025)
